Test results from US20100167397A1, “ENDOCRINE CELL LINES AND METHOD OF USING THE SAME” (KYOWA HAKKO KOGYO CO., LTD., priority 2002, published 2010).

Chains of the proteins cited; added tags and fusions are not shown. Lines headed by an entry give the natural chain unless they say otherwise; changes in a name come on top.
UniProt P35346: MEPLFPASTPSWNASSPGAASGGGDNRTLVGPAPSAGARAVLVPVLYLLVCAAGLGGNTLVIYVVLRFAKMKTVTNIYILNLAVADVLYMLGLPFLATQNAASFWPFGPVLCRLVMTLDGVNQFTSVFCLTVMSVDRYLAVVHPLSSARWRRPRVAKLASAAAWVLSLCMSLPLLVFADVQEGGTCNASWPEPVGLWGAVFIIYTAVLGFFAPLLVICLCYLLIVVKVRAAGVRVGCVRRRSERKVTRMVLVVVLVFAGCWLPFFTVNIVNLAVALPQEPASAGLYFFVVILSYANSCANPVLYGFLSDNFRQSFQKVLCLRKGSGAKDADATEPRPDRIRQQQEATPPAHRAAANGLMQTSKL

Target: type 5 somatostatin receptor (sst5) (Homo sapiens, UniProt P35346)
Assay: Assay cells / expression cloning for type 5 somatostatin receptor (sst5), Renilla luciferase reporter in GBCRC6
Settings: GBCRC6 with pAGal9-sst5; 100 nmol/L, 6 hours

With cortistatin as the substance, how does the “reactivity of sst5 to cortistatin (Renilla luciferase reporter)” value read?
The value was “activation of sst5”.
